{
  "source": "patent US11001581B2",
  "about": "“Compounds which inhibit RNA polymerase, compositions including such compounds, and their use” (THE JOHNS HOPKINS UNIVERSITY, priority 2014, dated 2021)",
  "data": [
    {"test_system": "NCL", "test": "Determination of NCL IC50 (loss of NCL nucleolar intensity, immunofluorescence image analysis)", "format": "cell-based", "details": "read-out: NCL (IC50 μM); U2OS cells, 3 h treatment, 0.1-10 μM, fold change to control, three-parameter fit", "units": {"IC50": "µM"}, "values": [
      {"smiles": "CN(C)CCCCNC(=O)c1cccn2c(=O)c3cc4ccccc4cc3nc12", "note": "[Compound 10, N-[4-(dimethylamino)butyl]-12-oxo-12H-benzo[g]pyrido[2,1-b]quinazoline-4-carboxamide]", "IC50": 1.53},
      {"smiles": "O=C(NC1CNC1)c1cccn2c(=O)c3cc4ccccc4cc3nc12", "note": "[Compound 14, N-(azetidin-3-yl)-12-oxo-12H-benzo[g]pyrido[2,1-b]quinazoline-4-carboxamide]", "IC50": 0.18},
      {"smiles": "CC(C)N1CCN(C(=O)c2cccn3c(=O)c4cc5ccccc5cc4nc23)CC1", "note": "[Compound 16, 4-(4-isopropylpiperazine-1-carbonyl)-12H-benzo[g]pyrido[2,1-b]quinazoline-12-one]", "IC50": "> 100"},
      {"smiles": "CCN(CCN(C)C)C(=O)c1cccn2c(=O)c3cc4ccccc4cc3nc12", "note": "[Compound 2, N-[2-(dimethylamino)ethyl]-N-ethyl-12-oxo-12H-benzo[g]pyrido[2,1-b]quinazoline-4-carboxamide]", "IC50": "> 100"},
      {"smiles": "CCN(CC)CCNC(=O)c1cccn2c(=O)c3cc4ccccc4cc3nc12", "note": "[Compound 20, N-[2-(diethylamino)ethyl]-12-oxo-12H-benzo[g]pyrido[2,1-b]quinazoline-4-carboxamide]", "IC50": 0.19},
      {"smiles": "CN(C)CCCNC(=O)c1cccn2c(=O)c3cc4ccccc4cc3nc12", "note": "[Compound 9, N-[3-(dimethylamino)propyl]-12-oxo-12H-benzo[g]pyrido[2,1-b]quinazoline-4-carboxamide]", "IC50": 0.48},
      {"smiles": "CN1CCC(NC(=O)c2cccn3c(=O)c4cc5ccccc5cc4nc23)CC1", "note": "[Compound 13, N-(1-methyl-4-piperidyl)-12-oxo-12H-benzo[g]pyrido[2,1-b]quinazoline-4-carboxamide]", "IC50": 1.38},
      {"smiles": "CC(CN(C)C)NC(=O)c1cccn2c(=O)c3cc4ccccc4cc3nc12", "note": "(stereo not drawn) [Compound 27, N-[2-(dimethylamino)-1-methyl-ethyl]-12-oxo-12H-benzo[g]pyrido[2,1-b]quinazoline-4-carboxamide]", "IC50": 0.16},
      {"smiles": "CC(C)N(CCNC(=O)c1cccn2c(=O)c3cc4ccccc4cc3nc12)C(C)C", "note": "[Compound 21, N-[2-(diisopropylamino)ethyl]-12-oxo-12H-benzo[g]pyrido[2,1-b]quinazoline-4-carboxamide]", "IC50": 1.7}
    ]}
  ]
}
